## Yeast mating assay B: variants of the scFv Ab-14

Target: peptide PDVDLGDISGINAS, taken from heptad repeat 2 (HR2) of SARS-CoV-2 spike.

The variants keep the heavy chain, the linker and the frameworks of Ab-14 (scFv order VH, a (GGGGS)3 linker, VL).
VH: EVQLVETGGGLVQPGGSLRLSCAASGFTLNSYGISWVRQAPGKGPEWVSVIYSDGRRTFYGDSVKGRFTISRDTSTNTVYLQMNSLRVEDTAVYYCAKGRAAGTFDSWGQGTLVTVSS
VL: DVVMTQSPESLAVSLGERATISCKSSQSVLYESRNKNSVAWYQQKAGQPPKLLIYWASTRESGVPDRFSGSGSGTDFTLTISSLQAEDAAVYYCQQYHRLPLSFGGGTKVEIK

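Designed CDR sequences, proposed from the first random library and measured here. Group labels follow the data file (Ctrl: baseline library sampled from a position-specific scoring matrix, with some repeated check sequences; En: ensemble of fine-tuned language models; GP: Gaussian process model; HC: hill climbing; Gen: genetic algorithm; Gibbs: Gibbs sampling; a sequence that several methods proposed may carry one label only). AlphaSeq pools MATa yeast showing the antibodies with MATalpha yeast showing the peptide. Pairs that bind mate more often; barcode pairs of the diploids are counted by sequencing. Read counts were normalised to the haploid input and turned into Kd by a linear fit to BCL2-family pairs of known affinity, for each replicate. Mating was done six times.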

The parent's light chain CDRs are KSSQSVLYESRNKNSVA, WASTRES, QQYHRLPLS; each variant's own CDRs replace them letter for letter.
Scale: log10 of Kd in nM, estimated from mating counts; low values are strong binders.
The mean shown is taken over the replicates in which the pair was detected.
Of ten entries with the parent sequence, four were seen in most replicates (averages 0.34 to 2.37), three in one and three in none, so single entries are noisy.
Three control strains display no target. For all light chain designs, 4% of the pairings with them gave a signal, with a median of 2.64 and one signal in twenty below 1.59, so weak values seen in few replicates may be background.
The authors' rule: three or more of the six replicates give a measured affinity, fewer mean a poor binder.
The range of this assay differs from that of the first round, and the authors advise against merging the two.

{"CDR-L1": "IVSQLMLWGYHAKNSIA", "CDR-L2": "EAELRLN", "CDR-L3": "QQYDRLPLI", "group": "En_Gen", "log10 Kd (nM), mean": "0.33", "detected": "6/6"}
{"CDR-L1": "KVMQSVLYESRNKNSVA", "CDR-L2": "EASTRES", "CDR-L3": "QQYHRLPLS", "group": "GP_Gen", "log10 Kd (nM), mean": "-0.17", "detected": "6/6"}
{"CDR-L1": "KSSQSWPYESRNKNSVA", "CDR-L2": "NASTRES", "CDR-L3": "QQYHRLPLS", "group": "GP_Gen", "log10 Kd (nM), mean": "0.16", "detected": "6/6"}
{"CDR-L1": "FISQSVEYESRDKNSVA", "CDR-L2": "NANTRLS", "CDR-L3": "QQYHRLPLS", "group": "GP_Gibbs", "log10 Kd (nM), mean": "0.68", "detected": "6/6"}
{"CDR-L1": "NVGQLMDGELRNKNSVA", "CDR-L2": "HQSTRED", "CDR-L3": "QHYHRLPLS", "group": "En_HC", "log10 Kd (nM), mean": "1.24", "detected": "6/6"}
{"CDR-L1": "HVSQVKYDQYNAQQNIA", "CDR-L2": "SAAEREW", "CDR-L3": "QQYSRLPFF", "group": "En_Gibbs", "log10 Kd (nM), mean": "0.96", "detected": "6/6"}
{"CDR-L1": "KAQQSEGYGERNSNSVA", "CDR-L2": "EASTRES", "CDR-L3": "QQYHRLPLS", "group": "GP_Gibbs", "log10 Kd (nM), mean": "0.33", "detected": "6/6"}
{"CDR-L1": "MFSQLLMYGSRNYNSVA", "CDR-L2": "QASTRES", "CDR-L3": "QQYHRLPLI", "group": "En_HC", "log10 Kd (nM), mean": "1.27", "detected": "6/6"}
{"CDR-L1": "KAQQSNEYESRNKWSVA", "CDR-L2": "NASTRES", "CDR-L3": "QQYHRLPLS", "group": "GP_Gibbs", "log10 Kd (nM), mean": "0.52", "detected": "6/6"}
{"CDR-L1": "MISQILNMGQFAINSVA", "CDR-L2": "QASIRNE", "CDR-L3": "QQYDRLPLM", "group": "En_Gen", "log10 Kd (nM), mean": "1.63", "detected": "6/6"}
{"CDR-L1": "KSQQSELYESRNKNSVA", "CDR-L2": "EASTRES", "CDR-L3": "QQYHRLPLS", "group": "GP_Gen", "log10 Kd (nM), mean": "-0.39", "detected": "6/6"}
{"CDR-L1": "HISQMWMLESHNKNNVA", "CDR-L2": "EESTRED", "CDR-L3": "QSYFRLPLS", "group": "En_HC", "log10 Kd (nM), mean": "-0.18", "detected": "6/6"}
{"CDR-L1": "KLSQSVLYESRNKNSVA", "CDR-L2": "NASTRCD", "CDR-L3": "QQYHRLPLS", "group": "GP_Gen", "log10 Kd (nM), mean": "-0.18", "detected": "6/6"}
{"CDR-L1": "KSSISWLYESRNKNSVA", "CDR-L2": "EASTRES", "CDR-L3": "QQYHRLPLM", "group": "GP_HC", "log10 Kd (nM), mean": "0.05", "detected": "6/6"}
{"CDR-L1": "KSSQSYHYESRNKNNVA", "CDR-L2": "GASTRES", "CDR-L3": "QQYHRLPLS", "group": "GP_HC", "log10 Kd (nM), mean": "-0.05", "detected": "6/6"}
{"CDR-L1": "KQSQSFLYESRNVNSVA", "CDR-L2": "GASTRES", "CDR-L3": "QQYHRLPLS", "group": "GP_HC", "log10 Kd (nM), mean": "0.96", "detected": "6/6"}
{"CDR-L1": "MVNGIMDHLSKNTNNVA", "CDR-L2": "ETSTRNS", "CDR-L3": "QQYDRLPLS", "group": "En_Gen", "log10 Kd (nM), mean": "0.62", "detected": "6/6"}
{"CDR-L1": "KLSQVTHSEHRQKNSIA", "CDR-L2": "EMVTREK", "CDR-L3": "QQYDRLPLS", "group": "En_HC", "log10 Kd (nM), mean": "1.92", "detected": "5/6"}
{"CDR-L1": "MISQLYNMGQFAINSVA", "CDR-L2": "QAETRNE", "CDR-L3": "QQYDRLPLI", "group": "En_Gen", "log10 Kd (nM), mean": "1.54", "detected": "6/6"}
{"CDR-L1": "KSSQSVLYESSNKNSVA", "CDR-L2": "WASTRER", "CDR-L3": "QQYHRLPLS", "group": "Ctrl", "log10 Kd (nM), mean": "2.05", "detected": "6/6"}
{"CDR-L1": "KLQQSQPYESRNKNSVA", "CDR-L2": "NASTRES", "CDR-L3": "QQYHRLPLS", "group": "GP_Gen", "log10 Kd (nM), mean": "-0.25", "detected": "6/6"}
{"CDR-L1": "KTSQDVLYESRPKNSVA", "CDR-L2": "WGSTREP", "CDR-L3": "QQYFRLPLS", "group": "Ctrl", "log10 Kd (nM), mean": "0.98", "detected": "2/6"}
{"CDR-L1": "KLMQSLQGEPKDWYNVA", "CDR-L2": "EGESATV", "CDR-L3": "QDYARLPLM", "group": "En_Gibbs", "log10 Kd (nM), mean": "2.35", "detected": "1/6"}
{"CDR-L1": "KFSQMVNTMSVSHSAVA", "CDR-L2": "EMSTRPE", "CDR-L3": "QQYNRLPLS", "group": "En_Gen", "log10 Kd (nM), mean": "0.47", "detected": "6/6"}
{"CDR-L1": "IMSESQERDASRLNNIA", "CDR-L2": "DDYTRAT", "CDR-L3": "QQYARLPLS", "group": "En_Gibbs", "log10 Kd (nM), mean": "0.59", "detected": "6/6"}
{"CDR-L1": "MLAQMWGIGMKAKNSVA", "CDR-L2": "QASIRFN", "CDR-L3": "QQYDRLPLI", "group": "En_Gen", "log10 Kd (nM), mean": "1.08", "detected": "1/6"}
{"CDR-L1": "HSSPSVAYESRNKNSVA", "CDR-L2": "NASTREM", "CDR-L3": "QQYHRLPLS", "group": "GP_HC", "log10 Kd (nM), mean": "0.25", "detected": "6/6"}
{"CDR-L1": "KLQQSHLYGSRMKNSVA", "CDR-L2": "HASQRES", "CDR-L3": "QCYHRLPLS", "group": "GP_Gibbs", "log10 Kd (nM), mean": "1.56", "detected": "6/6"}
{"CDR-L1": "KISYQYRFEQLSTNNIA", "CDR-L2": "EVVTRLK", "CDR-L3": "QQYHRLPLS", "group": "En_HC", "log10 Kd (nM), mean": "0.73", "detected": "6/6"}
{"CDR-L1": "KMSQEAMMLSRNWNSVA", "CDR-L2": "QASTREQ", "CDR-L3": "QQYHRLPLS", "group": "GP_Gibbs", "log10 Kd (nM), mean": "0.08", "detected": "6/6"}
{"CDR-L1": "KISESWLYEPRNSNSVA", "CDR-L2": "NASTRLQ", "CDR-L3": "QQYHRLPLS", "group": "GP_Gibbs", "log10 Kd (nM), mean": "-0.34", "detected": "6/6"}
{"CDR-L1": "QMQLSQREGNQHQNSIA", "CDR-L2": "GESEADM", "CDR-L3": "QHYARLPLT", "group": "En_Gibbs", "log10 Kd (nM), mean": "2.01", "detected": "1/6"}

The first 2 entries again:

| CDR-L1 | CDR-L2 | CDR-L3 | group | log10 Kd (nM), mean | detected |
|---|---|---|---|---|---|
| IVSQLMLWGYHAKNSIA | EAELRLN | QQYDRLPLI | En_Gen | 0.33 | 6/6 |
| KVMQSVLYESRNKNSVA | EASTRES | QQYHRLPLS | GP_Gen | -0.17 | 6/6 |

Reference: Li et al. 2023, doi:10.1038/s41467-023-39022-2. File: FLAb, binding data.